Laboratory results taken from patent publication US20260382582A1, “G-PROTEIN COUPLED RECEPTOR ANTAGONIST” (published 2026).
Where two headings read alike, the source gives them in different places.

By UniProt entry, the sequences of proteins in these tests, tags left out.
UniProt Q96LA9, whole entry: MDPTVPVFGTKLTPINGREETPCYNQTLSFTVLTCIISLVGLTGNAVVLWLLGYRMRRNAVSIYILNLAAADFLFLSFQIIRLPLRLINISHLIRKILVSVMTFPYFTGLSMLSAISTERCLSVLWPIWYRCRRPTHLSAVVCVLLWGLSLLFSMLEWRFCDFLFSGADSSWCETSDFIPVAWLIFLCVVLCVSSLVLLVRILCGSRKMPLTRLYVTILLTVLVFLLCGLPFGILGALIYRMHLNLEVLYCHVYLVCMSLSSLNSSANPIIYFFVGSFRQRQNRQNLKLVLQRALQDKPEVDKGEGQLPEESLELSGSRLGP

Molecular target: MRGPRX4 (Homo sapiens, UniProt Q96LA9)
Assay: MRGPRX4 activity assay, antagonism versus deoxycholic acid (DCA), IP-One Gq HTRF
Conditions: SH-4 cells
[1] = read-out: MRGPRX4 antagonist activity, versus 30 μM DCA agonist, Table 3

SMILES	IC50 [1]	IC50 (30 μM DCA agonist, Table 1)
CC(C)(C)c1ccc2c(c1)CC(c1cccc(C(=O)O)c1)O2 (centres unmarked)	> 3000 nM	
CC(C)c1ccc2c(c1)CC(c1cccc(C(=O)O)c1)O2 (centres unmarked)	1000 to 3000 nM	
CCS(=O)(=O)NC(=O)c1cccc([C@@H]2Cc3cc(C(F)(F)F)ccc3O2)c1	1000 to 3000 nM	
CN(C)S(=O)(=O)NC(=O)c1cccc([C@@H]2Cc3cc(C(F)(F)F)ccc3O2)c1	1000 to 3000 nM	
COc1c(F)ccc(-c2cccc(C3Cc4cc(C(F)(F)F)ccc4O3)c2)c1F (centres unmarked)	> 3000 nM	
COc1cc(-c2nnn[nH]2)cc(C2Cc3cc(C(F)(F)F)ccc3O2)c1 (centres unmarked)	500 to 1000 nM	
Cc1cc(-c2nnn[nH]2)cc(C2Cc3cc(C(F)(F)F)ccc3O2)c1 (centres unmarked)	< 100 nM	
Cc1cc(-c2nnn[nH]2)nc(C2Cc3cc(C(F)(F)F)ccc3O2)c1 (centres unmarked)	100 to 500 nM	
Cc1cc(-c2noc(=O)[nH]2)cc([C@@H]2Cc3cc(C(F)(F)F)ccc3O2)c1	100 to 500 nM	
Cc1cc(-c2noc(=O)[nH]2)nc(C2Cc3cc(C(F)(F)F)ccc3O2)c1 (centres unmarked)	100 to 500 nM	
Cc1cc(Cl)cc2c1OC(c1cccc(-c3nnn[nH]3)c1)C2 (centres unmarked)	100 to 500 nM	
Cc1cc2c(cc1Cl)CC(c1cccc(-c3nnn[nH]3)c1)O2 (centres unmarked)	100 to 500 nM	
Cc1cc2c(cc1F)CC(c1cccc(-c3nnn[nH]3)c1)O2 (centres unmarked)	500 to 1000 nM	
Clc1cc(Cl)c2c(c1)CC(c1cccc(-c3nnn[nH]3)c1)O2 (centres unmarked)	100 to 500 nM	
Clc1cc2c(cc1Cl)OC(c1cccc(-c3nnn[nH]3)c1)C2 (centres unmarked)	< 100 nM	
Clc1cc2c(cc1Cl)OC(c1cccc(-c3nnn[nH]3)n1)C2 (centres unmarked)	100 to 500 nM	
Cn1nnc(-c2cccc([C@@H]3Cc4cc(C(F)(F)F)ccc4O3)c2)n1	1000 to 3000 nM	
FC(F)(F)c1cc(Cl)c2c(c1)CC(c1cccc(-c3nnn[nH]3)c1)O2 (centres unmarked)	< 100 nM	
FC(F)(F)c1cc(Cl)c2c(c1)CC(c1cccc(-c3nnn[nH]3)n1)O2 (centres unmarked)	< 100 nM	
FC(F)(F)c1ccc2c(c1)CC(c1cc(-c3nnn[nH]3)cs1)O2 (centres unmarked)	500 to 1000 nM	
FC(F)(F)c1ccc2c(c1)CC(c1ccc(-c3nnn[nH]3)s1)O2 (centres unmarked)	> 3000 nM	
FC(F)(F)c1ccc2c(c1)CC(c1cccc(-c3ccccn3)c1)O2 (centres unmarked)	1000 to 3000 nM	
FC(F)(F)c1ccc2c(c1)CC(c1cccc(-c3ncc[nH]3)c1)O2 (centres unmarked)	> 3000 nM	

SMILES	IC50 [1]	IC50 (30 μM DCA agonist, Table 1)
FC(F)(F)c1ccc2c(c1)CC(c1cccc(-c3nnn[nH]3)c1)O2 (centres unmarked)	< 100 nM	39.4 nM
FC(F)(F)c1ccc2c(c1)CC(c1cccc(-c3nnn[nH]3)n1)O2 (centres unmarked)	< 100 nM	
FC(F)(F)c1ccc2c(c1)CC(c1ccnc(-c3nnn[nH]3)c1)O2 (centres unmarked)	100 to 500 nM	
FC(F)(F)c1ccc2c(c1)CC(c1cncc(-c3nnn[nH]3)c1)O2 (centres unmarked)	> 3000 nM	
FC(F)(F)c1ccc2c(c1)OC(c1cccc(-c3nnn[nH]3)c1)C2 (centres unmarked)	500 to 1000 nM	
FC(F)c1ccc2c(c1)CC(c1cccc(-c3nnn[nH]3)c1)O2 (centres unmarked)	100 to 500 nM	
Fc1c(-c2nnn[nH]2)cccc1C1Cc2cc(C(F)(F)F)ccc2O1 (centres unmarked)	< 100 nM	
Fc1cc(-c2nnn[nH]2)cc([C@@H]2Cc3cc(C(F)(F)F)ccc3O2)c1	100 to 500 nM	
Fc1cc2c(cc1Cl)CC(c1cccc(-c3nnn[nH]3)c1)O2 (centres unmarked)	< 100 nM	
Fc1cc2c(cc1Cl)CC(c1cccc(-c3nnn[nH]3)n1)O2 (centres unmarked)	< 100 nM	
Fc1cc2c(cc1Cl)OC(c1cccc(-c3nnn[nH]3)c1)C2 (centres unmarked)	100 to 500 nM	
Fc1cc2c(cc1F)OC(c1cccc(-c3nnn[nH]3)c1)C2 (centres unmarked)	100 to 500 nM	
N#Cc1cc(-c2nnn[nH]2)cc(C2Cc3cc(C(F)(F)F)ccc3O2)c1 (centres unmarked)	< 100 nM	
N#Cc1cc(-c2noc(=O)[nH]2)cc(C2Cc3cc(C(F)(F)F)ccc3O2)c1 (centres unmarked)	< 100 nM	
N#Cc1cc(-c2noc(=O)[nH]2)cc(C2Cc3cc(Cl)c(F)cc3O2)c1 (centres unmarked)	< 100 nM	
NS(=O)(=O)c1cccc(C2Cc3cc(C(F)(F)F)ccc3O2)c1 (centres unmarked)	> 3000 nM	
Nc1c(-c2nnn[nH]2)cccc1C1Cc2cc(C(F)(F)F)ccc2O1 (centres unmarked)	100 to 500 nM	
O=C(NO)c1cccc([C@@H]2Cc3cc(C(F)(F)F)ccc3O2)c1	> 3000 nM	
O=C(O)CCNC(=O)c1cccc([C@@H]2Cc3cc(C(F)(F)F)ccc3O2)c1	500 to 1000 nM	
O=C(O)c1cc(C2Cc3cc(C(F)(F)F)ccc3O2)ccn1 (centres unmarked)	1000 to 3000 nM	
O=C(O)c1ccc([C@@H]2CCc3cc(C(F)(F)F)ccc3O2)cc1		2000 nM
O=C(O)c1ccc([C@H]2CCc3cc(C(F)(F)F)ccc3O2)cc1		6000 nM
O=C(O)c1cccc(C2CCCc3cc(C(F)(F)F)ccc3O2)c1 (centres unmarked)	> 3000 nM	

SMILES	IC50 [1]	IC50 (30 μM DCA agonist, Table 1)
O=C(O)c1cccc(C2CCc3cc(C(F)(F)F)ccc3OC2)c1 (centres unmarked)	> 3000 nM	
O=C(O)c1cccc(C2Cc3cc(-c4ccc(F)cc4)ccc3O2)c1 (centres unmarked)	1000 to 3000 nM	
O=C(O)c1cccc(C2Cc3cc(-c4ccsc4)ccc3O2)c1 (centres unmarked)	1000 to 3000 nM	
O=C(O)c1cccc(C2Cc3cc(C(F)(F)F)cc(Cl)c3O2)c1 (centres unmarked)	100 to 500 nM	
O=C(O)c1cccc(C2Cc3cc(C(F)(F)F)ccc3O2)c1 (centres unmarked)	500 to 1000 nM	
O=C(O)c1cccc(C2Cc3cc(C(F)(F)F)ccc3O2)c1F (centres unmarked)	100 to 500 nM	
O=C(O)c1cccc(C2Cc3cc(C(F)(F)F)ccc3O2)n1 (centres unmarked)	500 to 1000 nM	
O=C(O)c1cccc(C2Cc3cc(Cl)c(Cl)cc3O2)c1 (centres unmarked)	500 to 1000 nM	
O=C(O)c1cccc(C2Cc3cc(Cl)c(F)cc3O2)c1 (centres unmarked)	100 to 500 nM	
O=C(O)c1cccc(C2Cc3cc(OC(F)(F)F)c(Cl)cc3O2)c1 (centres unmarked)	500 to 1000 nM	
O=C(O)c1cccc(C2Cc3cc(OC(F)(F)F)ccc3O2)c1 (centres unmarked)	500 to 1000 nM	
O=C(O)c1cccc(C2Cc3ccc(C(F)(F)F)cc3O2)c1 (centres unmarked)	1000 to 3000 nM	
O=C(O)c1cccc([C@@H]2CCc3cc(C(F)(F)F)ccc3O2)c1		2000 nM
O=C(O)c1cccc([C@@H]2Cc3cc(C(F)(F)F)ccc3O2)c1		290 nM
O=C(O)c1cccc([C@H]2CCc3cc(C(F)(F)F)ccc3O2)c1		> 100000 nM
O=C(O)c1cccc([C@H]2Cc3cc(C(F)(F)F)ccc3O2)c1		2000 nM
O=C(O)c1ccnc(C2Cc3cc(C(F)(F)F)ccc3O2)c1 (centres unmarked)	> 3000 nM	
O=C(O)c1cncc(C2Cc3cc(C(F)(F)F)ccc3O2)c1 (centres unmarked)	> 3000 nM	
O=S(=O)(O)c1cccc(C2Cc3cc(C(F)(F)F)cc(Cl)c3O2)c1 (centres unmarked)	1000 to 3000 nM	
O=c1[nH]c(-c2cc(F)cc(C3Cc4cc(Cl)c(F)cc4O3)c2)no1 (centres unmarked)	100 to 500 nM	
O=c1[nH]c(-c2cc(F)cc([C@@H]3Cc4cc(C(F)(F)F)ccc4O3)c2)no1	100 to 500 nM	
O=c1[nH]c(-c2cccc(C3Cc4cc(C(F)(F)F)ccc4O3)c2)no1 (centres unmarked)	< 100 nM	
O=c1[nH]c(-c2cccc(C3Cc4cc(C(F)(F)F)ccc4O3)c2F)no1 (centres unmarked)	< 100 nM	

SMILES	IC50 [1]	IC50 (30 μM DCA agonist, Table 1)
O=c1[nH]c(-c2cccc(C3Cc4cc(C(F)(F)F)ccc4O3)n2)no1 (centres unmarked)	100 to 500 nM	
O=c1[nH]c(-c2cccc(C3Cc4cc(Cl)c(F)cc4O3)c2)no1 (centres unmarked)	100 to 500 nM	
O=c1[nH]c(-c2cccc(C3Cc4cc(Cl)c(F)cc4O3)c2F)no1 (centres unmarked)	< 100 nM	
O=c1[nH]c(-c2cccc(C3Cc4cc(Cl)c(F)cc4O3)n2)no1 (centres unmarked)	100 to 500 nM	
O=c1[nH]c(-c2cccc(C3Cc4cc(Cl)cc(Cl)c4O3)c2)no1 (centres unmarked)	1000 to 3000 nM	
O=c1[nH]c(-c2cccc(C3Cc4cc(Cl)cc(Cl)c4O3)n2)no1 (centres unmarked)	500 to 1000 nM	
O=c1[nH]c(-c2cccc([C@@H]3Cc4cc(C(F)(F)F)cc(Cl)c4O3)c2)no1	100 to 500 nM	
O=c1[nH]c(-c2cccc([C@@H]3Cc4cc(C(F)(F)F)ccc4O3)c2)no1	100 to 500 nM	
O=c1[nH]c(-c2cccc([C@@H]3Cc4cc(C(F)(F)F)ccc4O3)c2F)no1		24 nM
O=c1oc(-c2cccc(C3Cc4cc(C(F)(F)F)ccc4O3)c2)ns1 (centres unmarked)	1000 to 3000 nM	
Oc1c(-c2nnn[nH]2)cccc1C1Cc2cc(C(F)(F)F)ccc2O1 (centres unmarked)	500 to 1000 nM	
Oc1c(F)cc(-c2cccc(C3Cc4cc(C(F)(F)F)ccc4O3)c2)cc1F (centres unmarked)	> 3000 nM	
Oc1cc(-c2cccc(C3Cc4cc(C(F)(F)F)ccc4O3)c2)on1 (centres unmarked)	1000 to 3000 nM	
Cc1cc2c(cc1Cl)C[C@@H](c1cccc(-c3nnn[nH]3)c1)O2 (single isomer, unassigned)	100 to 500 nM	
Cc1cc2c(cc1Cl)C[C@H](c1cccc(-c3nnn[nH]3)c1)O2 (single isomer, unassigned)	100 to 500 nM	
FC(F)(F)c1cc(Cl)c2c(c1)C[C@@H](c1cccc(-c3nnn[nH]3)n1)O2 (single isomer, unassigned)	< 100 nM	
FC(F)(F)c1cc(Cl)c2c(c1)C[C@H](c1cccc(-c3nnn[nH]3)n1)O2 (single isomer, unassigned)	1000 to 3000 nM	
N#Cc1cc(-c2nnn[nH]2)cc(C2Cc3cc(C(F)(F)F)ccc3O2)c1 (single isomer, unassigned)	100 to 500 nM	
N#Cc1cc(-c2nnn[nH]2)cc([C@H]2Cc3cc(C(F)(F)F)ccc3O2)c1 (single isomer, unassigned)	< 100 nM	
O=c1[nH]c(-c2cccc([C@@H]3Cc4cc(C(F)(F)F)ccc4O3)n2)no1 (single isomer, unassigned)	< 100 nM	
O=c1[nH]c(-c2cccc([C@H]3Cc4cc(C(F)(F)F)ccc4O3)n2)no1 (single isomer, unassigned)	> 3000 nM	
O=c1[nH]c(-c2cccc([C@H]3Cc4cc(Cl)c(F)cc4O3)n2)no1 (single isomer, unassigned)	> 3000 nM	
